Test results: US6342201B1, “Complex compounds for diagnosis of vascular diseases” (Institut for Diagnostikforschung GmbH an der Freien …, priority 1994, dated 2002)

Key:
[1] = test system: plaque as well as non-plaque regions of the aorta; experiment: Quantitative autoradiography and Sudan-III-dyeing of the removed aorta of WHHL-rabbits after i.v. application; format: in vivo; details: WHHL-rabbit; for Enrichment (cpm/mm^2) Non-plaque / Enrichment (cpm/mm^2) Plaque: 74 MBq (2 mCi) via ear vein, quantitative autoradiography of aorta; for Enrichment (cpm/mm^2) Non-plaque / Enrichment (cpm/mm^2) Plaque / Enrichment factor Plaque / Non-plaque: 5 h p.i.; for Enrichment (cpm/mm^2) Non-plaque: non-plaque region; for Enrichment (cpm/mm^2) Plaque: plaque region; for Enrichment factor Plaque / Non-plaque: ratio of enrichment in plaque and in non-plaque aorta tissue
Protocol: 74 MBq (2 mCi) of the respective compound according to the invention was applied via an ear vein in a WHHL-rabbit. 5 h p.i. the rabbit was killed and both a quantitative autoradiography and a Sudan-III-dyeing of the removed aorta were performed. The so-determined accumulation of the respective compounds according to the invention in the different tissues is listed in Table 1.
2 mCi (1 ml) of the analog to b) labelled Asp-Gly-Gly-Cys-Gly-Cys-His-Leu-Asp-Ile-Ile-Trp was applied to a narcotized WHHL-rabbit (Rompun/Ketavet 1:2) via an ear vein. WHHL-rabbits reveal due a missing or defect LDL receptor high LDL levels in blood and therefore show spontaneous arteriosclerotic vascular changes. During the experimental time span of 5 h after application, static photographs with various exposure times and positions were taken with a gamma camera (Elcint SP4 HR). 5 h after application the rabbit was killed and both an autoradiography and a Sudan III dyeing of the aorta were performed. The arteriosclerotic plagues in the region of the aortic arch of the WHHL-rabbits could be depicted with 10 min p.i. in vivo. […] The enrichment factor between the normal and arteriosclerotic wall regions was between 6 and 9, depending on the plaque formation (Sudan III dyeing).

[2] = test system: denuded (arteriosclerotic) right a. carotis; experiment: Scintigram and autoradiogram of a New Zealand rabbit with right a. carotis denuded by Fogarty-catheter; details: tissues dissected 5 h after i.v. application
Source text: The order of the dissected tissues for each B1 and B2 from left to right: thoracic aorta, right denuded a. carotis and left untreated a. carotis.

**Q.** How did the “Enrichment (cpm/mm^2) Non-plaque” value [1] turn out when “Tc-99m-Complex of N-(mercaptoacetyl)-Gly-Gly-Asp-Phe-(D-Trp)-Leu-Asp-Ile-Ile-Trp [Example 7 c]” was run?
**A.** Its value is 48 cpm/mm^2.

**Q.** What about the “Enrichment (cpm/mm^2) Plaque” value [1] of the same substance?
**A.** The value was 619 cpm/mm^2.

**Q.** And the “Enrichment factor Plaque / Non-plaque” value [1]?
**A.** The value was 13.

**Q.** “^99mTc-Complex of Asp-Gly-Gly-Cys-Gly-Cys-His-Leu-Asp-Ile-Ile-Trp [Example 1 c]” was tested. Which “autoradiography labelling of the aorta” value ([1]; 2 mCi i.v., 5 h after application) did it give?
**A.** Its value is “labelling of the entire aorta wall as well as the arteriosclerotic plaque”.

**Q.** What about the “Enrichment (cpm/mm^2) Non-plaque” value [1] of the same substance?
**A.** The value was 89 cpm/mm^2.

**Q.** And the “Enrichment (cpm/mm^2) Plaque” value [1]?
**A.** The value was 501 cpm/mm^2.

**Q.** What about the “Enrichment factor Plaque / Non-plaque” value [1] of the same substance?
**A.** The value was 6.

**Q.** How did the “Enrichment (cpm/mm^2) Non-plaque” value [1] turn out when “^99mTc-Complex of Asp-Gly-Gly-Cys-Gly-Cys-D-Trp-Leu-Asp-Ile-Ile-Trp [Example 2 c]” was run?
**A.** The value was 431 cpm/mm^2.

**Q.** And the “Enrichment (cpm/mm^2) Plaque” value [1]?
**A.** The value was 3090 cpm/mm^2.

**Q.** And the “Enrichment factor Plaque / Non-plaque” value [1]?
**A.** Its value is 7.

**Q.** What about the “accumulation in denuded right a. carotis in comparison to untreated left a. carotis (autoradiogram, Sudan-III-dyeing)” value [2] of the same substance?
**A.** The value was “higher and more selective accumulation”.

**Q.** And the “accumulation in denuded right a. carotis in comparison to untreated left a. carotis (autoradiogram, Sudan-III-dyeing)” value ([2]; listed as Tc-99m-Asp-Gly-Gly-Cys-Gly-Cys-(D-Trp)-Leu-Asp-Ile-Ile-Trp)?
**A.** Its value is “high and selective accumulation”.

**Q.** Which “Enrichment (cpm/mm^2) Non-plaque” value [1] does the source give for “Tc-99m-Complex of N-(mercaptoacetyl)-Gly-Gly-Asp-(D-Trp)-Leu-Asp-Ile-Ile-Trp [Example 8 c]” here?
**A.** Its value is 52 cpm/mm^2.

**Q.** And the “Enrichment (cpm/mm^2) Plaque” value [1]?
**A.** Its value is 513 cpm/mm^2.

**Q.** And the “Enrichment factor Plaque / Non-plaque” value [1]?
**A.** The value was 10.

**Q.** Which “Enrichment (cpm/mm^2) Non-plaque” value [1] does the source give for “Tc-99m-Complex of Asp-Gly-Gly-Cys-Gly-Cys-Phe-(D-Trp)-Leu-Asp-Ile-Ile-Trp [Example 3 c]” here?
**A.** The value was 368 cpm/mm^2.

**Q.** And the “Enrichment (cpm/mm^2) Plaque” value [1]?
**A.** The value was 3930 cpm/mm^2.

**Q.** And the “Enrichment factor Plaque / Non-plaque” value [1]?
**A.** Its value is 11.
